The structures appear in SMILES notation.

Chains of the proteins cited; added tags and fusions are not shown. Lines headed by an entry give the natural chain unless they say otherwise; changes in a name come on top.
UniProt Q2M2I8: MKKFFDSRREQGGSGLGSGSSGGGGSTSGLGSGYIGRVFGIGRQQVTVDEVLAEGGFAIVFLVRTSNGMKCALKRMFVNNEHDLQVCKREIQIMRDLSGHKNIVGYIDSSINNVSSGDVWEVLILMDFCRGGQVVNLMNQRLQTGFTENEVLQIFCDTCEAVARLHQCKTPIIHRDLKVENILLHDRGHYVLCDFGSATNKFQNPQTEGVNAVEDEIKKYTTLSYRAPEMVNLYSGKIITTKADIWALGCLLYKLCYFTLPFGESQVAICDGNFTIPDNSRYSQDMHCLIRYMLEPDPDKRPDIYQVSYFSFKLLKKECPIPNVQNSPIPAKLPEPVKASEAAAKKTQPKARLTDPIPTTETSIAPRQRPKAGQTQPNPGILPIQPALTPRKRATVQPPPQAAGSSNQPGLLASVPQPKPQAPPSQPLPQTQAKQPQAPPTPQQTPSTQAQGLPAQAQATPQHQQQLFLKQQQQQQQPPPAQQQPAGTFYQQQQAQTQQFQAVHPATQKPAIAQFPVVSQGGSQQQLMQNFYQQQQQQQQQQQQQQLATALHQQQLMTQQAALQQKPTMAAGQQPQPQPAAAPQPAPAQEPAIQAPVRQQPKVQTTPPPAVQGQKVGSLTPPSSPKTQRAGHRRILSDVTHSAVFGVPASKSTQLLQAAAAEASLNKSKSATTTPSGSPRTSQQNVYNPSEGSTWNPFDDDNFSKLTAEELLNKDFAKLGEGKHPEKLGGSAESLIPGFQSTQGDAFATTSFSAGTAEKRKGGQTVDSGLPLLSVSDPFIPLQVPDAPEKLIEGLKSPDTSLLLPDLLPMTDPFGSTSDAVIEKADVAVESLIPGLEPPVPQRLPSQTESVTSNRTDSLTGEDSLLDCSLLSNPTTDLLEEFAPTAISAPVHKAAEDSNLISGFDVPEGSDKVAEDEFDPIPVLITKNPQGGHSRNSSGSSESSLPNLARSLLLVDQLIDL

Drawing on patent US9902722B2, “Biaryl kinase inhibitors” (BRISTOL-MYERS SQUIBB COMPANY, priority 2014, dated 2018), this text covers IC50 for 4 molecules.

For this assay, the target named is GST-Xa-hAAK1 (Homo sapiens (Human), UniProt Q2M2I8). The experiment in a line: AAK1 Kinase Assay.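 Further: each compound tested across an eleven-point concentration series, with IC50 obtained through non-linear regression fitting.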 The assay is classed as biochemical. Particulars: bacterially expressed GST-Xa-hAAK1 3.5 nM; ATP 22 μM; peptide substrate 1.5 μM; 3 hours at room temperature; Caliper LabChip 3000. On the procedure: The assays were performed in U-bottom 384-well plates. […] The reactions were initiated by the combination of bacterially expressed, GST-Xa-hAAK1 with substrates and test compounds. The reactions were incubated at room temperature for 3 hours and terminated by adding 60 μl of 35 mM EDTA buffer to each sample. […] Compounds were dissolved at 10 mM in dimethylsulfoxide (DMSO) and evaluated at eleven concentrations. IC50 values were derived by non-linear regression analysis.
By IC50 is commonly meant the concentration at which inhibition is half-maximal. Take `CC(C)C[C@](C)(N)COc1ncc(-c2ccnc3ccccc23)cc1Cl` [Example 78, (S)-1-((3-chloro-5-(quinolin-4-yl)pyridin-2-yl)oxy)-2,4-dimethylpentan-2-amine]: the concentration for half-maximal inhibition (IC50) turned out to be 0.49 nM.
For `Cc1cc(-c2ccnc3ccc(F)cc23)ncc1OC[C@@](C)(N)CC(C)C` [Example 230, (S)-1-((6-(6-fluoroquinolin-4-yl)-4-methylpyridin-3-yl)oxy)-2,4-dimethylpentan-2-amine], the IC50 turned out to be 1.1 nM.
With `Cc1cc(-c2ccnc3cc(Cl)ccc23)ncc1OC[C@@](C)(N)CC(C)C` [Example 231, (S)-1-((6-(7-chloroquinolin-4-yl)-4-methylpyridin-3-yl)oxy)-2,4-dimethylpentan-2-amine], the IC50 came to 0.47 nM.
In the case of `Cc1nccc(-c2cc(Cl)c(OC[C@@](C)(N)CC(C)C)cn2)c1C` [Example 243, (S)-1-((4-chloro-2′,3′-dimethyl-[2,4′-bipyridin]-5-yl)oxy)-2,4-dimethylpentan-2-amine] it was 1070 nM.
